The subject of test [1] is PC3_CxR cells. Kind of test: Tumor size in SCID mice implanted with PC3_CxR cells (Example 5). To be noted: PC3_CxR implant, cabazitaxel 5 mg/kg i.p. once a week, three weeks, FIG. 12.
Test [2] concerns MCF-7 cells. Kind of test: Cell viability of MCF-7 cells with paclitaxel or docetaxel plus spiradoline (Example 7). To be noted: MCF-7 cells not drug resistant, 3 pmol/L spiradoline as printed, 48 h.
Test [3] deals with DU145_TxR cells. Kind of test: Cell viability of paclitaxel- and docetaxel-resistant DU145_TxR cells with cabazitaxel plus combination compound (Example 1).
Test [4] relates to MES-SA/Dx5 cells. The test is described as follows: Cell viability of multidrug-resistant MES-SA/Dx5 cells with paclitaxel or docetaxel plus spiradoline (Example 7). To be noted: 3 pmol/L spiradoline as printed, 48 h.
The test system of test [5] is PC3_CxR cells.
In test [6] the test system is DU145_CxR cells.
The test system of test [7] is MCF7-TxR cells. The test is described as follows: Cell viability of paclitaxel-resistant MCF7-TxR cells with paclitaxel or docetaxel plus spiradoline (Example 7). Particulars: paclitaxel-resistant MCF7-TxR cells, 3 pmol/L spiradoline as printed, 48 h.
The test system of test [8] is PC3_TxR cells. Kind of test: Cell viability of paclitaxel- and docetaxel-resistant PC3_TxR cells with taxane plus spiradoline (Examples 2, 3).
The test system of test [9] is MES-SA cells. The test is described as follows: Cell viability of MES-SA cells with paclitaxel or docetaxel plus spiradoline (Example 7). Particulars: MES-SA cells not drug resistant, 3 pmol/L spiradoline as printed, 48 h.
[10] abbreviates: calculated from the graphs, FIG. 5.
The mark [11] stands for this setting: calculated from the graphs, FIG. 8.

Data on one molecule can be found in patent publication US20240156781A1, “CANCER THERAPEUTIC AGENT” (published 2024).

Each structure is given as a SMILES string.

With `CN(C(=O)Cc1ccc(Cl)c(Cl)c1)[C@H]1CC[C@@]2(CCCO2)C[C@@H]1N1CCCC1`, in [1] (spiradoline 2 or 5 mg/kg i.p. twice a week), the “tumor size, spiradoline and cabazitaxel in combination vs only spiradoline or cabazitaxel” value is “smaller”. In addition, the “tumor size, 5 mg/kg spiradoline and cabazitaxel vs 2 mg/kg spiradoline and cabazitaxel” value in test [1] (spiradoline i.p. twice a week) is “smaller”. Also, the “efficacy of paclitaxel (cell viability) used in combination with spiradoline vs DMSO” value in test [2] (FIG. 13) is on record as “substantially the same as with DMSO”; in [4] (FIG. 15) it was “higher than that with DMSO”; in [7] (FIG. 13), “higher than that with DMSO”; in test [9] (FIG. 15), “substantially the same as with DMSO”. The “efficacy of docetaxel (cell viability) used in combination with spiradoline vs DMSO” value in [2] (FIG. 14) is listed as “substantially the same as with DMSO”; in [4] (FIG. 16), “higher than that with DMSO”; in test [7] (FIG. 14), “higher than that with DMSO”; in test [9] (FIG. 16), “substantially the same as with DMSO”. In addition, the “efficacy of cabazitaxel used in combination (cell viability)” value in test [3] (cabazitaxel 0-100 nmol/L, 48 h, compared with other combination compounds, FIG. 3) is reported as “higher efficacy”; in test [6] (cabazitaxel 0-100 nmol/L, 48 h, compared with other combination compounds, FIG. 4), “higher efficacy”. Besides, the “IC50 of cabazitaxel used in combination, as compared with DMSO” value in [3] (setting [10]), in test [5] (setting [11]), in test [6] (setting [10]) and in test [8] (setting [11]) was “markedly lower” in each case. For the same molecule, the “efficacy of cabazitaxel (cell viability) in combination with spiradoline” value in [5] (spiradoline 0.1, 1, 10 μmol/L vs DMSO, FIG. 7) is on record as “increased depending on the concentration of spiradoline”; in [8] (spiradoline 0.1, 1, 10 μmol/L vs DMSO, FIG. 6), “increased depending on the concentration of spiradoline”. Further, the “efficacy of paclitaxel (cell viability) in combination with spiradoline” value in [8] (spiradoline 3, 10 μmol/L vs DMSO, FIG. 9) is recorded as “increased depending on the concentration of spiradoline”. Moreover, the “efficacy of docetaxel (cell viability) in combination with spiradoline” value in [8] (spiradoline 3, 10 μmol/L vs DMSO, FIG. 10) is listed as “increased depending on the concentration of spiradoline”.
